scFv variants of Ab-95 (light chain) against a SARS-CoV-2 spike peptide

Source: Engelhart et al. 2022 (doi:10.1038/s41597-022-01779-4), MIT Lincoln Laboratory and A-Alpha Bio; data file from the FLAb repository.

Target peptide (SARS-CoV-2 spike, HR2 region): PDVDLGDISGINAS

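The parent was found by panning a naive human phage display library on the peptide. The library (AAYL52) carries one to three amino acid substitutions per variant, with no insertions or deletions. The assay is AlphaSeq: two haploid yeast populations carry antibody and antigen on their surface. After mating in shaken culture at 30 °C for 16 h, diploids were selected and their barcode pairs sequenced. Scores were corrected for input abundance and mapped to Kd with protein pairs of known affinity run in the same pool. There are three technical replicates.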

Each scFv is VH, the linker GGGGSGGGGSGGGGS, VL, as in the parent Ab-95, and differs from it in the CDRs of the light chain only.
VH: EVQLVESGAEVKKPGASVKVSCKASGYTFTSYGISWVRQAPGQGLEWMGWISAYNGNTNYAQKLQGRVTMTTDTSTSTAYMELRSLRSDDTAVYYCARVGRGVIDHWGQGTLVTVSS
VL: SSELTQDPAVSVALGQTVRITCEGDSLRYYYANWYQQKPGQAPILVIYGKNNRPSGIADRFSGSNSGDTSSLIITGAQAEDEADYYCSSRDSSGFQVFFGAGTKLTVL

Each variant is given by its three light chain CDRs, as the data file delimits them; those of the parent are EGDSLRYYYAN, GKNNRPS, SSRDSSGFQVF. The read-out is the apparent dissociation constant on a log10 scale (nM): the lower, the stronger. Averages over replicates are reported, and they cover detected replicates only. Where no diploid with the target was found in any replicate, the entry reads "no signal": below detection, most likely a poor binder, though not proof of it. In this assay the parent's reference entry averaged 2.31; its copy inside this library read 2.25. Nonspecific signal, from three strains lacking the peptide, appeared in 28% of pairings of library AAYL52, centred on 3.91 (5% of these signals below 2.90); values are not corrected for it. For each scFv, signals with the empty controls are counted beside the result.

CDR-L1	CDR-L2	CDR-L3	mean, log10 nM	seen in	empty controls
EGFILRYYYAN	GKNNRPS	SSRDSAGFQVF	4.25	1/3	1/9
EGDSLRQYFAN	GKNNRPS	SSQDSSGFQVF	3.36	3/3	2/9
EGDSLRYYYAN	GKNNRPS	SSRDHSGFQVL	3.55	3/3	2/9
EGDSLRYYNAN	GKNLRPS	SSRDSSGGQVF	1.82	3/3	5/9
EGDSLRYYYAN	GQNNRPS	SSLDSSGFQVF	2.54	3/3	2/9
EGFSLRYYYAN	EKNNRPS	SSRYSSGFQVF	4.31	1/3	1/9
EGDSLRYYYAN	GKLNRPS	SSRDTSGFQVF	no signal	0/3	1/9
EGDSLRYYYPN	GKNNRTS	SSRDQSGFQVF	1.67	3/3	0/9
EGDSLRYYYPN	GKNNFPS	VSRDSSGFQVF	no signal	0/3	4/9
EGDSLIYYYRN	GKNNRPS	WSRDSSGFQVF	4.95	1/3	3/9
EGDSLRYYYAN	GKNNRPS	SSRKSDGFQVF	2.25	3/3	4/9
EGDLLRGYEAN	GKNNRPS	SSRDSSGFQVF	2.21	3/3	5/9
EGTSLRYYDAN	RKNNRPS	SSRDSSGFQVF	2.75	3/3	3/9
EGDLLRYYYAN	SKNNRPS	SSGDSSGFQVF	3.50	3/3	1/9
EGDWLRYYYAN	GKNNRPS	SSRDCSGGQVF	3.64	1/3	3/9
EGDVLRYQYAN	GKNNRPS	STRDSSGFQVF	1.02	3/3	3/9
EGDSLRYYYAN	GKNNRPR	SSRDSDGFQVD	3.28	2/3	1/9
EGDSLRYYYAV	GKNNRPS	SSRDSSGFNVF	4.55	2/3	4/9
EGDSLRYYYAN	GKNNRTS	SSRDSSGFQVD	no signal	0/3	0/9
SGDSLRYYYAN	GKNNSPS	SGRDSSGFQVF	2.95	2/3	1/9
EGDSLRYYYAN	GKNNRPP	SSRDSSGFFVF	2.83	3/3	2/9
EGDSLRYKYAN	GLNNRPS	SSRDSSGFFVF	1.48	3/3	3/9
EGNSLRYYYAN	GKNNRPS	SSRDRSGFQIF	3.02	3/3	2/9
EGDGLRYYLAN	GKNNRPS	SPRDSSGFQVF	4.56	1/3	3/9
EFDSLRYYYAN	TKNNRPS	SSRDSSLFQVF	4.61	1/3	2/9
EGDSLQYYYAN	GKNNRPS	SDPDSSGFQVF	2.68	3/3	0/9
KGDSLRCYYAN	GKNNRPS	STRDSSGFQVF	3.28	3/3	2/9
EGDSLRYYYAN	DKNNRPS	SSRDSSWFQVF	3.76	2/3	2/9
EGRSLRYMYAN	GYNNRPS	SSRDSSGFQVF	2.70	2/3	0/9
EVDSLRYYYAN	GKNNRPS	SSRDSSTAQVF	2.54	3/3	2/9
EGDSLRYYYAN	GKNNRPS	SNRDSSGFIVF	3.03	3/3	1/9
EGDSLRYYLAN	VKNNMPS	SSRDSSGFQVF	no signal	0/3	2/9
EQDSLRYYEAN	GKNNRPS	SCRDSSGFQVF	2.17	3/3	3/9
EGDSLRYYTAI	GKNNRPS	SSPDSSGFQVF	5.43	1/3	2/9
EGDSLQYYYAN	GKNNRPS	SQRDSSGFWVF	3.27	3/3	2/9
EGDSLRAYYAN	GKDNYPS	SSRDSSGFQVF	no signal	0/3	1/9
EGDSLRYYYAN	GKNRRAS	SSRDSSGKQVF	no signal	0/3	0/9
EGDSLRYMYAN	GKNNRPQ	SSRDSHGFQVF	2.52	3/3	1/9
EGDSLFYYYAN	GKNYRPK	SSRDSSGFQVF	3.50	3/3	4/9
EGDSLLYYYAT	GKNNRPS	SSRDFSGFQVF	5.56	1/3	0/9
EGDSRRYYYAN	GQNNRPS	SSRDSSGFQVK	3.19	1/3	0/9
EGDSLRYYYAN	GPNNRHS	SSVDSSGFQVF	2.97	2/3	2/9
EQDSLRYYVAN	GKNNRPS	SSRDSNGFQVF	no signal	0/3	1/9
EGDSLRYYYAN	GKNNRPS	SSRDSSHTQVF	2.67	3/3	6/9
EGDSLRYYDAN	GKNNRPS	SSPTSSGFQVF	4.50	1/3	3/9
EGDSFRYYYAC	GKNNRMS	SSRDSSGFQVF	3.01	3/3	2/9
EQDSLRYYYAN	GKNNRPS	SSRDSSSFAVF	3.83	3/3	3/9
EGDHLRYFYAN	GKNNRPQ	SSRDSSGFQVF	2.47	3/3	2/9
EGDSLRYYYAN	GKNNLPS	ASRKSSGFQVF	4.05	2/3	2/9
EGTSLRYYCAN	GKNNRPS	SSRDSSHFQVF	1.93	3/3	5/9
EYDWLRYYYAF	GKNNRPS	SSRDSSGFQVF	2.51	3/3	3/9
EVDSLRYYYHN	GKNNRPS	SSRESSGFQVF	3.95	2/3	3/9
EGDSKRYYYAN	GKNKLPS	SSRDSSGFQVF	3.44	1/3	1/9
EGDSLWYYKAN	GKNNRGS	SSRDSSGFQVF	3.91	1/3	0/9
EHDSLRCYYAN	GKNNRPS	SSRCSSGFQVF	3.38	1/3	3/9
LGDSLRYYYAN	GKNNMPS	SRRDSSGFQVF	4.01	3/3	3/9
EFDSLRYYYAN	GKNVRPS	SSRDSIGFQVF	no signal	0/3	5/9
EGDSLRNYYAN	GTNNRPK	SSRDSSGFQVF	1.98	3/3	7/9
EGDSCRYYYAN	GKNNRPS	SSIDSSGDQVF	3.19	1/3	6/9
EGDSLRYYTAN	GKLNRPS	DSRDSSGFQVF	4.30	1/3	5/9
TGTSLRYYYAN	GKNNRPS	SLRDSSGFQVF	3.14	3/3	4/9
EGDSLRYYYAN	GKNNRPS	MSRDSSGTQAF	2.25	3/3	2/9
EGDSLRYLYAN	GKNNRPS	SPRDSSGFQVF	2.85	3/3	7/9
TGDSLRYYYAN	GKNNRPA	TSRDSSGFQVF	3.42	2/3	2/9

The closing 4 entries, repeated:

| CDR-L1 | CDR-L2 | CDR-L3 | mean, log10 nM | seen in | empty controls |
|---|---|---|---|---|---|
| TGTSLRYYYAN | GKNNRPS | SLRDSSGFQVF | 3.14 | 3/3 | 4/9 |
| EGDSLRYYYAN | GKNNRPS | MSRDSSGTQAF | 2.25 | 3/3 | 2/9 |
| EGDSLRYLYAN | GKNNRPS | SPRDSSGFQVF | 2.85 | 3/3 | 7/9 |
| TGDSLRYYYAN | GKNNRPA | TSRDSSGFQVF | 3.42 | 2/3 | 2/9 |